Key:
Assay type in all cases: cell-based, human
[1] = tested on: TNF-α; assay: ELISA of TNF-α production in LPS-stimulated THP-1 cells; conditions: THP-1 CC50 / TNF-α IC50
[2] = tested on: IL-6; assay: ELISA of IL-6 production in LPS-stimulated THP-1 cells; conditions: THP-1 CC50 / IL-6 IC50
Description: (§1) The logarithmic growth phase of THP-1 cells was achieved by seeding in 96-well plates at a density of 5 × 10^4 cells/well and differentiated for 24 h in the presence of PMA (0.5 μM solution in medium). After 24 h of incubation, the culture medium was removed from the 96-well plate and the cells were washed with PBS. […] The cells were pretreated with 17 limonoids at the corresponding concentration for 1 h, followed by the addition of LPS (10 ng/mL) and then incubation at 37 °C for 18 h. Finally, 50 μL of each culture supernatant solution was taken to determine the concentrations of IL-6, MCP-1, and IL-1β using the corresponding commercially available human ELISA kits following the manufacturer’s instructions. The analyte concentration in the supernatant was measured in pg/mL, and the inhibition level was expressed as a fold change compared to the LPS (−) control group. To determine the IC50 value, the dose-response data were normalized to the LPS-stimulated-only group, and the percentage of inhibition was calculated using the following formula: % Inhibition=(Absorbance of LPS+ control−Absorbance of compound treatment with LPS)/(Absorbance of LPS+ control−Absorbance of LPS− control)×100
(§2) Furthermore, the % inhibition data were interpolated into linear equations to determine the IC50 values.

[3] = tested on: MCP-1; assay: ELISA of MCP-1 production in LPS-stimulated THP-1 cells; conditions: THP-1 CC50 / MCP-1 IC50
Description: as §1, §2

Compound: C[C@@H]1C[C@H]2[C@@H]3CCC4=CC(=O)C=C[C@]4(C)[C@@]3(F)[C@@H](O)C[C@]2(C)[C@@]1(O)C(=O)CO [Dex, dexamethasone, reference compound]
- TNF-α SI (selectivity index, CC50/IC50) [1]: 13.01
- IL-6 SI (selectivity index, CC50/IC50) [2]: 39.20
- MCP-1 SI (selectivity index, CC50/IC50) [3]: 56.46
